Measured values as given in US10653676B2 (Dana-Farber Cancer Institute, Inc., priority 2010, dated 2020).

Sequences of proteins named here, by UniProt entry; tags and fusion partners are left off.
UniProt O94782, whole entry G670A/G671A: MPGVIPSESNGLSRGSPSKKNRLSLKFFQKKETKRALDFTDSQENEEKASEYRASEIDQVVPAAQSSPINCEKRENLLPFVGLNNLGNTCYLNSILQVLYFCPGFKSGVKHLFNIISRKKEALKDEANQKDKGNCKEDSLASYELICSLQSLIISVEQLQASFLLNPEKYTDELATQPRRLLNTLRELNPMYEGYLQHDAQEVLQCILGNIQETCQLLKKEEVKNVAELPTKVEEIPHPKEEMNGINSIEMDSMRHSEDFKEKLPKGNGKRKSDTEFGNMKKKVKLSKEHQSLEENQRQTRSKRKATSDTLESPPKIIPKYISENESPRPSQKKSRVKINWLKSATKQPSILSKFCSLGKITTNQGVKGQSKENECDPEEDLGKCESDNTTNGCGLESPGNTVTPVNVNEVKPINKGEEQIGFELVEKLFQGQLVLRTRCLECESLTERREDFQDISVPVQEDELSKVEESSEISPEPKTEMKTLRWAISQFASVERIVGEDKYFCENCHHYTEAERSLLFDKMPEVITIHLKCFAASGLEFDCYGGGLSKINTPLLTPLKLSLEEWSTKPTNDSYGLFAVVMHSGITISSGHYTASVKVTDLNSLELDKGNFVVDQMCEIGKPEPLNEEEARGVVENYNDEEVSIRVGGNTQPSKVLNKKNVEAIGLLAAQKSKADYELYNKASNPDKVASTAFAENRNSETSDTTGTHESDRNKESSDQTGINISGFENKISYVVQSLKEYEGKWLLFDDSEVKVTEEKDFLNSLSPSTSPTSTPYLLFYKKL

Assays:
USP1/UAF1 complex = biological target: T1, USP1/UAF1 complex (Homo sapiens, UniProt O94782, G670A/G671A); assay: ubiquitin-AMC in vitro deubiquitination enzyme assay; assay type: biochemical; conditions: 25 nM
T1 construct: This modified full length USP1 clone was PCR amplified and subcloned into pFastBac-HT vectors; His tag (N); made in house; host or cells: Sf9 insect cells (baculovirus)
Protocol: Purified USP1/UAF1 complex was incubated with 1 μM C527 or DMSO for indicated time, followed by the addition of Ub-AMC at 0.5 μM final concentration. The fluorescence at […] was measured to indicate the enzymatic activity of USP1. […] 5A.
The in vitro enzymatic assays were performed using purified proteins from Sf9 cells as described previously (Cohn et al.). The assays using ubiquitin-AMC (Ub-7-amido-4-methylcoumarin; Boston Biochem) as substrate was carried out in a reaction buffer containing 20 mM HEPES-KOH (pH 7.8), 20 mM NaCl, 0.1 mg/ml ovalbumin, 0.5 mM EDTA and 10 mM dithiothreitol. The fluorescence was measured by FluoStar Galaxy Fluorometer (BMG Labtech). For the Ub-vinylsulfone (VS) assay, the proteins were incubated with Ub-VS at 0.5 μM final concentration for 1 h at 30° C., followed by the immunoblotting analysis.
In order to develop a highly sensitive assay with easy readout for high throughput detection, the fluorogenic compound Ubiquitin-7-amido-4-methylcoumarin (AMC-Ub, Boston Biochem) was used as a substrate for USP1/UAF1 enzyme complex. USP1 catalyzes the cleavage of AMC-Ub, releasing free AMC moiety, which leads to increase in fluorescence emission at 460 nm (λex=380 nm). […] Fluorescence was measured using a Fluostar Galaxy Fluorometer (BMG Labtech Inc.).
Hits from the initial screening were analyzed further in secondary screening. […]

USP1 = biological target: T2, USP1 (Homo sapiens, UniProt O94782); assay: Ub-vinyl sulfone conjugation of USP1 in lysates of compound-treated HeLa cells; assay type: cell-based; conditions: 50 μM inhibitor for 2, 4, or 6 hours, lysates with Ub-Vs 40 minutes, FIG. 2
T2 construct: endogenous in cells; host or cells: HeLa
Protocol: In one set of experiments, HeLa cells were incubated in the presence of 50 μM of selected inhibitors including the compound of Formula III (933) and the compound of Formula IV (527) for 2, 4, or 6 hours, followed by cell lysis. Ub-aldehyde (Ub-Ald, a known USP1 inhibitor) was used as a positive control, and dimethysulfoxide (DMSO) was used as a negative control. Lysates were incubated with the Ub-vinyl sulfone (Ub-Vs) reagent for 40 minutes. Proteins were electrophoresed on SDS-PAGE, transferred to nitrocellulose, and immunoblotted with the anti-USP1 antibody.
HeLa cells were incubated with the compound of Formula IV (527) for eight hours, followed by cell lysis and incubation of protein extract with Ub-vinyl sulfone.

## Ub-aldehyde [reference compound]
USP1/UAF1 complex
  enzyme activity of USP1/UAF1 complex upon incubation: sharp decrease in enzyme activity
USP1
  Ub-Vs conjugation of USP1 / deubiquitinase activity: blocked Ub-Vs conjugation of USP1
